# GIV Gai3 FP = inhibitors of GIV peptide binding to Galpha-i3, primary screen, biochemical, fluorescence polarization, FITC-GIV GBA peptide, rat Galphai3 | 90 min; hits give low values; scaled: aluminum fluoride 0%, vehicle 100% | percent of control (FP), % (concentration not given with the values) | 210,000 compounds, 0.42% hits | AID 1224905, 2016;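 active = replicate mean at 85% of control or lower, very high polarization wells dropped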;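 also: wells of about 15 µL received 100 nL stock; the first replicate is given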
# HCMV NEC inh = inhibitors of HCMV UL50-UL53 interaction, biochemical, HTRF. HCMV UL50-UL53 nuclear egress complex (human cytomegalovirus). normalized percent inhibition. inhibition, % (test concentration not listed). hit rate 0.15% among 190,000; in the data active means inhibition above about 27%, passing the limit was not always enough
# GIV-Gai FP conf = inhibitors of GIV peptide binding to Galpha-i3, confirmation, biochemical, fluorescence polarization, FITC-GIV peptide, rat Galphai3 | shares compounds with GIV Gai3 FP | hits give low values | fluorescence polarization, mP at 100 µM | hit rate 38% among 580;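 active means inhibition score of 15 or more, meaning 100 minus mean polarization as percent of control over three replicates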;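 further: lower mP means peptide displaced from Galphai3 so more inhibition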
# GIV Gai AS conf = inhibitors of GIV binding to Galpha-i3, confirmation, orthogonal assay for GIV-Galpha-i inhibitor project, biochemical, AlphaScreen, His-GIV, GST-Galphai3; shares compounds with GIV Gai3 FP; purified proteins, 90 min; hits give low values; AlphaScreen counts at 100 µM; hit rate 39% among 580;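 active means inhibition score at or above a set limit, where the score is 100 minus the three-replicate mean percent of control signal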
# * hit, by the source's call; nt = not tested or not shown. Shown is part of a subset that was picked to be rich in hits.
# Short keys: A = GIV Gai3 FP; B = HCMV NEC inh; C = GIV-Gai FP conf; D = GIV Gai AS conf
O=C(CN1C2=NCCCN2c2ccccc21)c1ccc(Cl)c(Cl)c1
  A: 115 | B: nt | C: nt | D: nt
O=C(CN1C2=NCCCN2c2ccccc21)c1ccc(Cl)cc1
  A: 90 | B: nt | C: 68 | D: 45914
O=C(C1CCN(S(=O)(=O)c2ccc(-c3noc(C4CC4)n3)cc2)CC1)N1CCOCC1
  A: 108 | B: nt | C: nt | D: nt
CC1=NN(c2ccccc2)C(=O)C1(C)N (stereo not drawn)
  A: 104 | B: -2 | C: nt | D: nt
CC1=NN(c2ccccc2)C(=O)C1(O)C1C(=O)c2ccccc2C1=O (stereo not drawn)
  A: 74* | B: 36 | C: 56* | D: 4583*
N#Cc1ccccc1CSc1nnc(-c2cccs2)n1Cc1ccccc1
  A: nt | B: -3 | C: nt | D: nt
Nc1c(-c2nc(-c3ccc(F)cc3)cs2)c2ccccn2c1C(=O)c1ccc2c(c1)OCO2
  A: 75* | B: -18 | C: 80 | D: 34447
Cc1ccc(-c2csc(-c3c(N)c(C(=O)c4ccc5c(c4)OCO5)n4ccccc34)n2)cc1C
  A: 89 | B: -16 | C: nt | D: nt
CCOc1ccc(-c2cc3c(SCC(=O)c4cc(C)ccc4C)nccn3n2)cc1
  A: 107 | B: -13 | C: nt | D: nt
O=S(=O)(/N=C(\Nc1ccc(O)cc1)c1ccccc1)c1ccccc1
  A: nt | B: 4 | C: nt | D: nt
O=C(O)Cn1c2ccc(Cl)cc2c2nc3ccccc3nc21
  A: nt | B: -91 | C: nt | D: nt
O=C(O)Cn1c2c(c3ccccc31)CSc1ccc(Cl)cc1-2
  A: 86 | B: nt | C: 72 | D: 18488*
O=C1C2C(c3ccc(Cl)cc3)OC3(C(=O)c4ccccc4C3=O)C2C(=O)N1c1cccc2ccccc12 (stereo not drawn)
  A: 121 | B: nt | C: nt | D: nt
O=c1[nH]c(-c2ccc(O)cc2)nc2ccccc12
  A: 88 | B: -18 | C: 69 | D: 45426
Cc1ccc(-c2nc3ccccc3c(=O)[nH]2)cc1
  A: 101 | B: -11 | C: nt | D: nt
CCOc1cc(-c2cccc(Cl)c2)nc2ccc(C(=O)NCCc3c[nH]c4ccc(OC)cc34)cc12
  A: 105 | B: 2 | C: nt | D: nt
Cc1cc(OCC(O)CN(C(C)C)C(C)C)c(C(C)C)cc1Cl (stereo not drawn)
  A: nt | B: -28 | C: nt | D: nt
CCOC(=O)c1c(N)sc(C)c1C
  A: nt | B: -13 | C: nt | D: nt
COC(=O)c1c(N)sc2c1CCCC2
  A: 107 | B: -8 | C: nt | D: nt
CCOC(=O)c1[nH]c2sc(C)c(C)c2c1N
  A: 83* | B: -14 | C: 73 | D: 8984*
COC(=O)c1[nH]c2sc3c(c2c1N)CCCC3
  A: 20* | B: -2 | C: 39* | D: 8300*
CCOc1ccccc1C(=O)NCc1nc(-c2ccccc2)no1
  A: 105 | B: -12 | C: nt | D: nt
CC(C)c1cc(C(=O)N2CCc3ccccc32)nn1C1CCS(=O)(=O)C1 (stereo not drawn)
  A: 97 | B: 10 | C: nt | D: nt
CCOC(=O)C1CCCN(C(=O)Cn2c(=O)c3ccccc3n3c(=S)sc(-c4ccccc4F)c23)C1 (stereo not drawn)
  A: 103 | B: 5 | C: nt | D: nt
CC1CCN(C(=O)Cn2c(=O)c3ccccc3n3c(=S)sc(-c4ccccc4F)c23)CC1
  A: 81* | B: -33 | C: 87 | D: 20249
O=C(NCc1c(-c2ccccc2)nc2n1CCS2)c1ccc(S(=O)(=O)N2CCCCC2)cc1
  A: 106 | B: nt | C: nt | D: nt
CC(C)(C)c1ccc(OCCOc2ccccc2C=C2C(=O)NC(=S)NC2=O)cc1
  A: 95 | B: -20 | C: nt | D: nt
O=C1NC(=S)NC(=O)C1=Cc1cccc(O)c1Cl
  A: 77* | B: -11 | C: 69 | D: 4117*
CCn1c(C(=O)OC)cc2sc(Cl)cc21
  A: 106 | B: nt | C: nt | D: nt
CCOC(=O)/C(C#N)=C\c1cc2ccc(OC)cc2[nH]c1=O
  A: 56* | B: -59 | C: 82 | D: 26623
COc1cccc(C(=O)NCCc2cc3ccc(OC)cc3[nH]c2=O)c1
  A: 107 | B: -19 | C: nt | D: nt
COc1ccc(/C=C2/SC(N)=NC2=O)cc1OCc1ccc(Cl)cc1Cl
  A: 100 | B: -12 | C: nt | D: nt
O=C1CCCC(O)=C1C=Nc1ccc(N=CC2=C(O)CCCC2=O)cc1
  A: 101 | B: -13 | C: nt | D: nt
O=C1CCCC(O)=C1C=NCCCn1ccnc1
  A: 87 | B: -19 | C: 66 | D: 3828*
CCN(C(=O)c1cccc(F)c1)C1CCS(=O)(=O)C1 (stereo not drawn)
  A: 100 | B: -20 | C: nt | D: nt
COC(=O)CSc1ccc2c3c(cccc13)C(=O)c1ccccc1-2
  A: 68* | B: nt | C: 22* | D: 45087
COC(=O)CSc1ncnc2ccccc12
  A: nt | B: 5 | C: nt | D: nt
O=C(c1ccc2ccnc(N3CCN(c4ccc(Cl)cc4)CC3)c2c1)N1CCCC1
  A: 101 | B: nt | C: nt | D: nt
CCCOc1ccc2c(c1)C(=O)c1cc(OCC(=O)O)ccc1-2
  A: 80* | B: -181 | C: 73 | D: 54581
CCOc1ccc2c(c1)C(=O)c1cc(OCC(=O)OC)ccc1-2
  A: 128 | B: nt | C: nt | D: nt
CCn1ncc(Br)c1C(=O)NC1CCCCC1
  A: 102 | B: 1 | C: nt | D: nt
Nc1ccc2c(c1)C(=O)N(CCO)C2=O
  A: 90 | B: -38 | C: 63 | D: 44198
Nc1ccc2c(c1)C(=O)N(CCCCN1C(=O)c3ccc(N)cc3C1=O)C2=O
  A: 109 | B: -27 | C: nt | D: nt
CCc1cnc2c(c1SC(C)C)c(=O)n(C)c(=O)n2C
  A: 97 | B: nt | C: nt | D: nt
Cc1ccc(/C=N/c2sccc2C#N)cc1
  A: 48* | B: -10 | C: 40* | D: 10146*

# Retrieved by compound from the list above (four):
# Short keys: A = GIV Gai3 FP; B = HCMV NEC inh; C = GIV-Gai FP conf; D = GIV Gai AS conf
CCOC(=O)c1[nH]c2sc(C)c(C)c2c1N
  A: 83* | B: -14 | C: 73 | D: 8984*
CCn1c(C(=O)OC)cc2sc(Cl)cc21
  A: 106 | B: nt | C: nt | D: nt
CC(C)c1cc(C(=O)N2CCc3ccccc32)nn1C1CCS(=O)(=O)C1 (stereo not drawn)
  A: 97 | B: 10 | C: nt | D: nt
O=S(=O)(/N=C(\Nc1ccc(O)cc1)c1ccccc1)c1ccccc1
  A: nt | B: 4 | C: nt | D: nt

# (more compounds)
# Short keys: A = GIV Gai3 FP; B = HCMV NEC inh; C = GIV-Gai FP conf; D = GIV Gai AS conf
N#Cc1ccsc1/N=C/c1ccccc1
  A: 106 | B: -24 | C: nt | D: nt
c1cc2c(cc1CNc1nc3nonc3nc1NCc1ccc3c(c1)OCO3)OCO2
  A: 107 | B: -2 | C: nt | D: nt
CCOC(=O)c1nc2cc(C)c(C)cc2nc1NCc1ccc2c(c1)OCO2
  A: 80* | B: -12 | C: 62 | D: 44491
COc1ccccc1C1Nc2ccc(Br)cc2[C@H]2OCCC[C@@H]12 (stereo partly drawn)
  A: 102 | B: nt | C: nt | D: nt
Nc1nc2ccc(CCC(=O)O)cc2s1
  A: 57* | B: 2 | C: 60* | D: 3278*
CCc1ccc2nc(N)sc2c1
  A: 100 | B: nt | C: nt | D: nt
CC1CCC(NS(=O)(=O)c2ccc3c(c2)NC(=O)C(CC(=O)N2CCCC2)CS3)CC1 (stereo not drawn)
  A: 101 | B: nt | C: nt | D: nt
O=C(C1CC1)N1CCc2cc(Br)c(S(=O)(=O)NCCN3CCN(c4ccccc4)CC3)cc21
  A: 103 | B: -13 | C: nt | D: nt
Cc1ccc(/C=C2\SC(=O)NC2=O)o1
  A: nt | B: -55 | C: nt | D: nt
Cc1ccc(/C=C2/SC(=O)NC2=S)o1
  A: 80* | B: nt | C: 57* | D: 2262*
O=C(Cc1cccc2ccccc12)NCCOc1ccccc1
  A: nt | B: -21 | C: nt | D: nt
CC1(C)C=C(O)C(C2(O)C(=O)c3ccccc3C2=O)C(=O)C1 (stereo not drawn)
  A: nt | B: 63 | C: nt | D: nt
CC1(C)CC(=O)C(C2(O)C(=O)c3ccccc3C2=O)C(=O)C1
  A: 66* | B: 82* | C: 58* | D: 44260
O=C(CC1(O)C(=O)c2ccccc2C1=O)c1ccccc1
  A: nt | B: -42 | C: nt | D: nt
CCOC1(O)C(=O)c2ccccc2C(=O)C1(O)OCC (stereo not drawn)
  A: 72* | B: 97* | C: 65 | D: 46438
O=C1c2ccccc2C(=O)C2(O)OCCOC12O (stereo not drawn)
  A: 51* | B: 106* | C: 62* | D: 34751
CCN(c1ccccc1)C1(O)C(=O)c2ccccc2C1=O
  A: 96 | B: nt | C: nt | D: nt
COc1ccc(OCC(=O)N2c3ccccc3C(Nc3ccccc3)CC2C)cc1 (stereo not drawn)
  A: 100 | B: 3 | C: nt | D: nt
CC(C)(C)C(=O)CSc1nc2ccsc2c(=O)n1Cc1ccc(F)cc1
  A: 100 | B: -2 | C: nt | D: nt
O=C(NCc1cccc(Cl)c1)c1cc2ccccn2c1
  A: 76* | B: nt | C: 89 | D: 9777*
O=C(NCc1cccc(Cl)c1)c1ccc2c(c1)N(Cc1ccccc1)CCS2
  A: 104 | B: -25 | C: nt | D: nt
C1CCC(Nc2nc(N3CCOCC3)nc(N3CCOCC3)n2)CC1
  A: 103 | B: -5 | C: nt | D: nt

# Assay outcomes deposited in PubChem by ICCB-Longwood Screening Facility, Harvard Medical School.
